The text below walks through data of patent US4743606A, “3-[2-(3',5'-di-t-butyl-4'-hydroxyphenyl)ethenyl]pyridine having anti-inflammatory and anti-arthritic properties” (Boehringer Ingelheim Pharmaceuticals, Inc., priority 1986, dated 1988).

The chains behind the UniProt entries cited, without tags or fusion partners. Residues count along the entry.
UniProt P23219, 24-599: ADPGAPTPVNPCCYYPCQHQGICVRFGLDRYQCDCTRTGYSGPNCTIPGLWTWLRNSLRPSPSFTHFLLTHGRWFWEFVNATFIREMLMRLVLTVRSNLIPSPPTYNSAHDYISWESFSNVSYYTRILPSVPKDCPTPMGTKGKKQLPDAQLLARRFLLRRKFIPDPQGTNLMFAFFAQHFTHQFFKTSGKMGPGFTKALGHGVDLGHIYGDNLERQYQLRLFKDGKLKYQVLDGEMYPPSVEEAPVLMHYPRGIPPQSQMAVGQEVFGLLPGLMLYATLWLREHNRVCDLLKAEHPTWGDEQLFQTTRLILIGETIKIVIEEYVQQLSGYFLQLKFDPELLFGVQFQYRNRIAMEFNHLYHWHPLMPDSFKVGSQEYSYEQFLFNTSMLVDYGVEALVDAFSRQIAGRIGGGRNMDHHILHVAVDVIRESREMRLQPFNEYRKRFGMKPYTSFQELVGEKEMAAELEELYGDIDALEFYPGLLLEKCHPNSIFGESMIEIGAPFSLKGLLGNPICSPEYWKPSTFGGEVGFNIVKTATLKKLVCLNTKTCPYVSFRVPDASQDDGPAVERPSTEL

The nature of one data set: in vivo. As to conditions: rat.
Data set [1] deals with T1, Cyclooxygenase (Homo sapiens, UniProt P23219). As to conditions: in words.
Data set [2] concerns the target T1, Cyclooxygenase. Kind of data set: cell-based.
The mark [3] stands for this setting: read-out: % Inhibition of Cyclooxygenase.

Consider `CC(C)(C)c1cc(C=Cc2cccnc2)cc(C(C)(C)C)c1O` [Compound 1, 3-[2-(3,5-di-t-butyl-4-hydroxyphenyl)ethenyl]-pyridine], for which the selectivity ratio in “in vivo” is 50. Moreover, at Cyclooxygenase [1], the inhibition of cyclooxygenase result is on record as “inhibit”. In addition, at Cyclooxygenase [2], the half-inhibitory concentration (IC50) (usually the concentration at which inhibition is half-maximal) came out at 900 nM. On Cyclooxygenase [2] (setting [3]), the inhibition (in general, the drop in the measured response relative to a control, in per cent) at 0.05 µM is 7%; the inhibition at 0.1 µM came out at 11%; the inhibition at 0.33 µM turned out to be 25%; the inhibition at 0.66 µM is 50%. Besides, at Cyclooxygenase [2] (setting [3]), the inhibition at 1 µM is 53% and the inhibition at 10 µM is 59%.
